Data: patent US9718825B2, “N-(4-(azaindazol-6-yl)-phenyl)-sulfonamides and their use as pharmaceuticals” (priority 2013, dated 2017)
pIC50: −log10 of the molar value.

Sequences of proteins named here, by UniProt entry; tags and fusion partners are left off.
UniProt O00141, whole entry: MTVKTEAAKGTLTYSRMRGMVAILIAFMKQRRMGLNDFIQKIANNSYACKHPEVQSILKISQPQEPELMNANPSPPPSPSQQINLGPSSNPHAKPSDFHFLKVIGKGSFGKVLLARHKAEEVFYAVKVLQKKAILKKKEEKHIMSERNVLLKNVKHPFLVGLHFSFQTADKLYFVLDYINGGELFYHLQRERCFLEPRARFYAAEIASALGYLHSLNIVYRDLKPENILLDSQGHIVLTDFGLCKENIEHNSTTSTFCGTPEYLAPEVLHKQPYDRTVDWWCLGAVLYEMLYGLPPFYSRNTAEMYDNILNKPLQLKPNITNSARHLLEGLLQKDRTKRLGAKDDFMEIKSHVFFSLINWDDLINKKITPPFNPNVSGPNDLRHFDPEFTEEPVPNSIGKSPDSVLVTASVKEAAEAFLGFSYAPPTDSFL

Tests used:
[1] = target: recombinant human SGK-1 enzyme (Homo sapiens, UniProt O00141); experiment: Enzymatic activity assay: SGK-1 substrate peptide phosphorylation (Caliper lab-chip mobility shift); format: biochemical; settings: read-out: IC50 values for inhibition of SGK-1 enzymatic activity, peptide substrate 1 μM, ATP 10 μM, 60 min at 37° C.
[2] = system: collagen type X (Col10a1) expression in mouse chondrogenic ATDC5 cells; experiment: Chondrocyte hypertrophic differentiation in mouse chondrogenic ATDC5 cells (collagen type X expression); format: cell-based; settings: read-out: IC50 values for the inhibition of collagen type X expression in mouse chondrogenic ATDC5 cells; Col10a1 expression by quantitative real-time PCR after two weeks of cell culture
Excerpt: D) Determination of the effect on chondrocyte hypertrophic differentiation in mouse chondrogenic ATDC5 cells
The ATDC5 cell assay was used as in vitro model to determine the effects of the compounds of the invention on chondrocyte hypertrophic differentiation by monitoring the expression levels of collagen type X (Col10a1) as specific marker of chondrocyte hypertrophy.
Background: ATDC5 cells are a clonal mouse embryonic cell line derived from multipotent AT805 teratocarcinoma cells (Atsumi, T. et al., A chondrogenic cell line derived from a differentiating culture of AT805 teratocarcinoma cells, Cell Differ. Dev. 1990, 30, 109-116). The cells can undergo insulin-dependent chondrogenic cell differentiation entailing distinct differentiation stages starting from an undifferentiated, subconfluent stage, a condensation stage, a cartilage nodule formation stage and a calcification stage within 45 days of in vitro culture. Chondrogenic differentiation can be shown by measuring the expression of the cartilage main collagen (Col2a1) and aggrecan (AGC1) and glycosaminoglycan-staining with Alcian Blue within two weeks after insulin-triggered differentiation, and hypertrophic differentiation can be monitored by the expression of collagen type X (Col10a1), a specific marker of chondrocyte hypertrophy within 21 days of in vitro culture. (Shukunami, C. et al., Chondrogenic Differentiation of Clonal Mouse Embryonic Cell Lne ATDC5 In Vitro: Differentiation-dependent Gene Expression of Parathyroid Hormone (PTH)/PTH-related Peptide Receptor, J. Cell Biol. 1996, 133, 457-468). Growth factor BMP-2 is known to stimulate cell differentiation and can stimulate early and late-phase ATDC5 differentiation (Shukunami, C. et al., Sequential Progression of the Differentiation Program by Bone Morphogenetic Protein-2 in Chondrogenic Cell Line ATDC5, Exp. Cell Res. 1998, 241, 1-11). Thyroid hormone triiodothyronine (T3) promotes hypertrophic differentiation of growth plate chondrocytes (Robson, H. et al., Thyroid Hormone Acts Directly on Growth Plate Chondrocytes to Promote Hypertrophic Differentiation and Inhibit Clonal Expansion and Cell Proliferation, Endocrinology 2000, 141, 3887-3897). Addition of BMP2 and T3 can accelerate ATDC5 hypertrophic differentiation leading to the strong induction Col10a1 expression between 10-14 days. SGK-inhibitors were added to differentiating ATDC5 cells for 14 days and Col10a1 gene expression was quantified to determine effects on chondrocyte hypertrophic differentiation.
Cell assay description: ATDC5 cells were maintained in 300 cm^2 tissue culture flasks in DMEM/Ham's F12+5% FCS supplemented with 10 μg/ml human transferrin, 30 nM sodium selenite, 50 μg/ml kanamycin and grown at 37° C. in 5% CO2 in 95% air. To initiate cell differentiation, 9.9×10^4 cells were plated in 24 well plates and grown for 2 days. Medium was exchanged with DMEM/Ham's F12+5% FCS supplemented with 10 μg/ml human transferrin, 30 nM sodium selenite, 50 μg/ml ascorbic acid and 1 μg/ml BMP2. The assay was run in triplicates, compounds were added in […], and medium changed every 2-3 days including supplementation of compound. At day 7 after initiation of cell differentiation, 1 μM T3 was used as additional supplement in the cell culture.
After two weeks of cell culture, RNA was isolated and converted to cDNA for determination of gene expression by quantitative real-time PCR. Cells were lysed in 600 μl of RLT-buffer (Qiagen) and total RNA was isolated using the RNA-easy Mini RNA isolation Kit (Qiagen) which was run on a Qiacube system (Qiagen) according to the supplier's instructions. RNA was isolated in 30 μl of pure water and the RNA content measured by UV-spectroscopy (Nanodrop, Peqlab). For cDNA synthesis 50 ng total RNA was reverse transcribed using the High Capacity cDNA Reverse Transcription Kit (Applied Biosystems, Product Number 4368813) according to the manufacturer's instructions. […]

[3] = target: SGK-1 dependent phosphorylation of GSK3beta in U2OS cells (UniProt O00141); experiment: SGK-1 dependent phosphorylation of GSK3beta in U2OS cells overexpressing recombinant SGK-1 and GSK3beta; format: cell-based, human; settings: read-out: IC50 values for inhibition of SGK-1 dependent phosphorylation of GSK3beta in U2OS cells, 6 h incubation, ratio of phosphorylated GSK3beta to total GSK3beta

Compound: COc1ccc(C#N)c(S(=O)(=O)Nc2ccc(-c3nc(OC4CCN(C5CCC5)CC4)c4c(C)n[nH]c4n3)cc2)c1
- pIC50 [1]: 8.49
- pIC50 [2]: 7.62

Compound: COc1ccc(Cl)c(S(=O)(=O)Nc2ccc(-c3nc(OC4CCN(C5CCC5)CC4)c4c(C)n[nH]c4n3)cc2)c1
- pIC50 [1]: 8.43
- pIC50 [2]: 7.06

Compound: CCCOc1nc(-c2ccc(NS(=O)(=O)c3cc(Cl)ccc3Cl)cc2)nc2[nH]nc(N)c12
- pIC50 [1]: 7.32
- pIC50 [2]: 6.85

Compound: CCOc1nc(-c2ccc(NS(=O)(=O)c3cc(OC)ccc3Cl)cc2)nc2[nH]nc(N)c12
- pIC50 [1]: 8.49
- pIC50 [2]: 8.00

Compound: O=S(=O)(Nc1ccc(-c2nc(OC3CCN(C4CCC4)CC3)c3cn[nH]c3n2)cc1)c1cc(F)ccc1F
- pIC50 [1]: 6.00
- pIC50 [2]: 6.24

Compound: CCOc1nc(-c2ccc(NS(=O)(=O)c3cc(OC)ccc3F)cc2)nc2[nH]nc(C)c12
- pIC50 [1]: 8.02
- pIC50 [2]: 6.57

Compound: COc1ccc(F)c(S(=O)(=O)Nc2ccc(-c3nc(OCCCN)c4c(C)n[nH]c4n3)cc2)c1
- pIC50 [3]: 7.07
- pIC50 [1]: > 8.82

Compound: Cc1n[nH]c2nc(-c3ccc(NS(=O)(=O)c4cc(Cl)ccc4Cl)cc3)nc(OC3CCN(C4CCC4)CC3)c12
- pIC50 [1]: 8.46
- pIC50 [2]: 6.35

Compound: Cc1ccc(F)c(S(=O)(=O)Nc2ccc(-c3nc(OC4CCN(CCF)CC4)c4c(C)n[nH]c4n3)cc2)c1
- pIC50 [3]: 8.00
- pIC50 [1]: 8.37

Compound: Cc1n[nH]c2nc(-c3ccc(NS(=O)(=O)c4cc(Cl)ccc4C#N)cc3)nc(OC3CCC(O)CC3)c12 (centres unmarked)
- pIC50 [3]: 6.01
- pIC50 [1]: 8.96
- pIC50 [2]: 7.21

Compound: Cc1n[nH]c2nc(-c3ccc(NS(=O)(=O)c4cc(Cl)c(F)cc4F)cc3)nc(OC3CCN(C4CCC4)CC3)c12
- pIC50 [1]: 8.55
- pIC50 [2]: 6.54

Compound: Cc1nc(-c2ccc(NS(=O)(=O)c3cc(Cl)c(Cl)s3)cc2)nc2[nH]nc(N)c12
- pIC50 [3]: 5.62
- pIC50 [1]: 6.42

Compound: Cc1nc(-c2ccc(NS(=O)(=O)c3cc4c(cc3Cl)OCCO4)cc2)nc2[nH]nc(N)c12
- pIC50 [3]: 5.96
- pIC50 [1]: > 8.82

Compound: Cc1nc(-c2ccc(NS(=O)(=O)c3cscc3Cl)cc2)nc2[nH]nc(N)c12
- pIC50 [3]: 6.05
- pIC50 [1]: 6.34

Compound: Cc1ccc(C#N)c(S(=O)(=O)Nc2ccc(-c3nc(OCc4cn[nH]c4)c4cn[nH]c4n3)cc2)c1
- pIC50 [3]: 5.26
- pIC50 [1]: > 8.82

Compound: Cc1ccc(F)c(S(=O)(=O)Nc2ccc(-c3nc(OCC4CN(C(C)C)C4)c4c(C)n[nH]c4n3)cc2)c1
- pIC50 [1]: > 9.30
- pIC50 [2]: 7.09

Compound: CC1(C)C(O)C(C)(C)C1Oc1nc(-c2ccc(NS(=O)(=O)c3cc(Cl)ccc3F)cc2)nc2[nH]ncc12 (centres unmarked)
- pIC50 [3]: 6.38
- pIC50 [1]: 7.24

Compound: Cc1ccc(C#N)c(S(=O)(=O)Nc2ccc(-c3nc(OC4CCCC(O)C4)c4c(C)n[nH]c4n3)cc2)c1 (centres unmarked)
- pIC50 [3]: 6.12
- pIC50 [1]: 8.85

Compound: Nc1n[nH]c2nc(-c3ccc(NS(=O)(=O)c4cc5c(cc4Cl)OCCCO5)cc3)ncc12
- pIC50 [3]: 5.46
- pIC50 [1]: 8.17

Compound: COc1ccc(F)c(S(=O)(=O)Nc2ccc(-c3nc(OC4CCN(C5CCC5)CC4)c4c(C)n[nH]c4n3)cc2)c1
- pIC50 [1]: 8.66
- pIC50 [2]: 7.68

Compound: COc1ccc(Cl)c(S(=O)(=O)Nc2ccc(-c3nc(OC4CNC4)c4cn[nH]c4n3)cc2)c1
- pIC50 [3]: 6.96
- pIC50 [1]: 8.29

Compound: CC(=O)N1CCC(Oc2nc(-c3ccc(NS(=O)(=O)c4cc(C)ccc4C#N)cc3)nc3[nH]nc(C)c23)CC1
- pIC50 [1]: 8.49
- pIC50 [2]: 6.92

Compound: Cc1n[nH]c2nc(-c3ccc(NS(=O)(=O)c4cc(Cl)ccc4F)cc3)nc(OC3CCN(C4CCC4)CC3)c12
- pIC50 [1]: 8.54
- pIC50 [2]: 7.57

Compound: CCCOc1nc(-c2ccc(NS(=O)(=O)c3cc(OC)ccc3F)cc2)nc2[nH]nc(N)c12
- pIC50 [1]: 8.59
- pIC50 [2]: 7.96

Compound: COc1ccc(Cl)c(S(=O)(=O)Nc2ccc(-c3nc(OC4CCN(C(C)=O)CC4)c4c(C)n[nH]c4n3)cc2)c1
- pIC50 [1]: 8.24
- pIC50 [2]: 7.80

Compound: CCCOc1nc(-c2ccc(NS(=O)(=O)c3cc(OC)ccc3Cl)cc2)nc2[nH]nc(N)c12
- pIC50 [1]: 8.33
- pIC50 [2]: 7.43

Compound: CC(=O)N1CCC(Oc2nc(-c3ccc(NS(=O)(=O)c4cc(F)ccc4F)cc3)nc3[nH]nc(C)c23)CC1
- pIC50 [1]: 8.55
- pIC50 [2]: 7.37

Compound: Cc1n[nH]c2nc(-c3ccc(NS(=O)(=O)c4cc(Cl)ccc4F)cc3)nc(OC3CC(C)(C)N(C)C(C)(C)C3)c12
- pIC50 [1]: 8.62
- pIC50 [2]: 7.27

Compound: COc1ccc(Cl)c(S(=O)(=O)Nc2ccc(-c3nc(Oc4ccc(O)nc4)c4c(C)n[nH]c4n3)cc2)c1
- pIC50 [1]: 8.59
- pIC50 [2]: 7.05

Compound: COc1ccc(Cl)c(S(=O)(=O)Nc2ccc(-c3nc(OC4CCN(C)CC4)c4cn[nH]c4n3)cc2)c1
- pIC50 [3]: 7.68
- pIC50 [1]: 8.35

Compound: Cc1n[nH]c2nc(-c3ccc(NS(=O)(=O)c4cc(F)ccc4F)cc3)nc(OCCCO)c12
- pIC50 [1]: 6.92
- pIC50 [2]: 6.44

Compound: O=S(=O)(Nc1ccc(-c2nc(C3CC3)c3cn[nH]c3n2)cc1)c1cc(Cl)ccc1F [Example 141]
- pIC50 [3]: 6.85
- pIC50 [1]: 8.92
